Results taken from patent publication EP4847509A1, “GLP-1 RECEPTOR AGONIST, AND PREPARATION METHOD THEREFOR AND USE THEREOF” (dated 2026).
pEC50: −log10 of the molar value.

Sequences of proteins named here, by UniProt entry; tags and fusion partners are left off. Residues count along the entry.
UniProt P43220, 24-463 limits assumed: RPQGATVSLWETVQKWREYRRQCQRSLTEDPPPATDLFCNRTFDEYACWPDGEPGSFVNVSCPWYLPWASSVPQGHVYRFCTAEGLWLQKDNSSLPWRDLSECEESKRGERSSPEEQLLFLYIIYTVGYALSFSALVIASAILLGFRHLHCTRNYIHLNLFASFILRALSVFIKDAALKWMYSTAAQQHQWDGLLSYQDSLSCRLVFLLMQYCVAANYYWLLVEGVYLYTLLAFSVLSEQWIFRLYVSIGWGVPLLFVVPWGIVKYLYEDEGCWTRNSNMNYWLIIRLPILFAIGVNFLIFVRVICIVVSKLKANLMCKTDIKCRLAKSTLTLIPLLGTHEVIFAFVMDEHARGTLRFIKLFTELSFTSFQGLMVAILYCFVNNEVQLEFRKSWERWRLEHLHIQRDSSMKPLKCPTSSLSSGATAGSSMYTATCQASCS

How the values were obtained:
[1] = Kinetic solubility in FaSSIF; conditions: FaSSIF pH 6.5, 25°C, 2 h, 100 µM final concentration, 0.5% DMSO
[2] = Pharmacokinetic study in rats; conditions: SD rat, po, 5 mg/kg
[3] = Pharmacokinetic study in Cynomolgus monkeys; conditions: po, 5 mg/kg
[4] = Pharmacokinetic study in mice; conditions: C57BL/6 mice, po, 10 mg/kg
[5] = Stability in liver microsome; conditions: human liver microsome 0.5 mg/mL, 1 µM test substance, NADPH, 37°C
GLP-1 receptors = GLP-1 receptors (Homo sapiens, UniProt P43220); assay: cAMP agonism test in HEK293 cells with high expression of hGLP-1R (titled in vitro cell viability test); conditions: cAMP detection

FaSSIF pH 6.5 [1] [µM]	AUC0-24 h [2] [ng·h/mL]	Cmax [2] [ng/mL]	T1/2 [2] [h]	AUC0-24 h [3] [ng·h/mL]	Cmax [3] [ng/mL]	T1/2 [3] [h]	AUC0-24 h [4] [µg·h/mL]	Cmax [4] [ng/mL]	T1/2 [4] [h]	Human T1/2 [5] [min]	Compound	pEC50 (GLP-1 receptors)
85.92	21158	2020	10.9	5291	406	10.6	66.26	4583	27.3	–	Cc1cc(-n2nc3c(c2-n2ccn(-c4ccc5c(cnn5C)c4F)c2=O)[C@H](C)N(C(=O)c2cc4cc([C@H]5CCOC(C)(C)C5)ccc4n2[C@@]2(c4noc(=O)[nH]4)C[C@@H]2C)CC32CC2)cc(C)c1F	–
54.20	19113	2320	2.86	4826	376	9.2	131.001	8757	8.71	>184	Cc1cc(-n2nc3c(c2-n2ccn(-c4ccc5c(cnn5C5CC5)c4F)c2=O)[C@H](C)N(C(=O)c2cc4cc([C@H]5CCOC(C)(C)C5)ccc4n2C2(c4noc(=O)[nH]4)CC2)CC3(C)C)cc(C)c1F	9.02
63.34	20358	2083	4.44	4599	298	6.33	124.788	6877	20.3	>184	Cc1cc(-n2nc3c(c2-n2ccn(-c4ccc5c(cnn5C5CC5)c4F)c2=O)[C@H](C)N(C(=O)c2cc4cc([C@H]5CCOC(C)(C)C5)ccc4n2C2(c4noc(=O)[nH]4)CC2)CC32CC2)cc(C)c1F	8.90
0.36	–	–	–	–	–	–	–	–	–	–	Cc1cc(-n2nc3c(c2-n2ccn(-c4ccc5c(cnn5C)c4F)c2=O)[C@H](C)N(C(=O)c2cc4cc([C@H]5CCOC(C)(C)C5)ccc4n2[C@@]2(c4noc(=O)[nH]4)C[C@@H]2C)CC3)cc(C)c1F	–
–	–	–	–	–	–	–	–	–	–	–	Cc1cc(-n2nc3c(c2-n2ccn(-c4ccc5c(cnn5C)c4F)c2=O)[C@H](C)N(C(=O)c2cc4cc([C@H]5CCOC(C)(C)C5)ccn4c2C2(c4noc(=O)[nH]4)CC2)CC3(C)C)cc(C)c1F	8.99
–	–	–	–	–	–	–	–	–	–	>184	[2H]C([2H])([2H])n1ncc2c(F)c(-n3ccn(-c4c5c(nn4-c4cc(C)c(F)c(C)c4)C4(CC4)CN(C(=O)c4cc6cc([C@H]7CCOC(C)(C)C7)ccc6n4[C@@]4(c6noc(=O)[nH]6)C[C@@H]4C)[C@H]5C)c3=O)ccc21	–
–	19867	1553	10.8	–	–	–	137.222	9050	10	–	Cc1cc(-n2nc3c(c2-n2ccn(-c4ccc5c(cnn5C)c4F)c2=O)[C@H](C)N(C(=O)c2cc4cc(C5CCOCC5)ccc4n2[C@@]2(c4noc(=O)[nH]4)C[C@@H]2C)CC32CC2)cc(C)c1F	–
–	–	–	–	–	–	–	–	–	–	–	3-((1S,2S)-1-(5-((S)-2,2-dimethyltetrahydro-2H-pyran-4-yl)-2-((S)-3-(3-(4-fluoro-1-methyl-1H-indazol-5-yl)-2-oxo-2,3-dihydro-1H-imidazol-1-yl)-2-(4-fluoro-3,5-dimethylphenyl)-4,7,7-trimethyl-4,5,6,7-tetrahydro-2H-pyrazole[4,3-c]pyridine-5-carbonyl)-1H-indol-1-yl)-2-methylcyclopropyl)-1,2,4-oxadiazol-5(4H)-one	8.99
